Measured values as given in patent US5789625A, “Metal-ligand complex catalyzed processes” (priority 1996, dated 1998).

Experiment: Stability of Ligand F in butyraldehyde solution containing rhodium, by HPLC (Examples 2-4)
Assay type: physicochemical
Conditions: 0.018 grams phosphorous acid and 0.0337 grams benzimidazole added

For CC(C)(C)c1cc(-c2cc(C(C)(C)C)cc(C(C)(C)C)c2Op2oc3ccccc3c3ccccc3o2)c(Op2oc3ccccc3c3ccccc3o2)c(C(C)(C)C)c1 [Ligand F], the “decomposition of Ligand F” value (24 hours) was “No decomposition” and the “decomposition of Ligand F” value (72 hours) was “No decomposition”.
